Experimental data as given in ChEMBL document CHEMBL4265898, “Histidine N(τ)-cyclized macrocycles as a new genre of polo-like kinase 1 polo-box domain-binding inhibitors” (Bioorg Med Chem Lett, 2018).

By UniProt entry, the sequences of proteins in these tests, tags left out. Where a name states a change or a piece, a line headed by the entry shows the natural chain unless it says otherwise.
UniProt Q9NYY3: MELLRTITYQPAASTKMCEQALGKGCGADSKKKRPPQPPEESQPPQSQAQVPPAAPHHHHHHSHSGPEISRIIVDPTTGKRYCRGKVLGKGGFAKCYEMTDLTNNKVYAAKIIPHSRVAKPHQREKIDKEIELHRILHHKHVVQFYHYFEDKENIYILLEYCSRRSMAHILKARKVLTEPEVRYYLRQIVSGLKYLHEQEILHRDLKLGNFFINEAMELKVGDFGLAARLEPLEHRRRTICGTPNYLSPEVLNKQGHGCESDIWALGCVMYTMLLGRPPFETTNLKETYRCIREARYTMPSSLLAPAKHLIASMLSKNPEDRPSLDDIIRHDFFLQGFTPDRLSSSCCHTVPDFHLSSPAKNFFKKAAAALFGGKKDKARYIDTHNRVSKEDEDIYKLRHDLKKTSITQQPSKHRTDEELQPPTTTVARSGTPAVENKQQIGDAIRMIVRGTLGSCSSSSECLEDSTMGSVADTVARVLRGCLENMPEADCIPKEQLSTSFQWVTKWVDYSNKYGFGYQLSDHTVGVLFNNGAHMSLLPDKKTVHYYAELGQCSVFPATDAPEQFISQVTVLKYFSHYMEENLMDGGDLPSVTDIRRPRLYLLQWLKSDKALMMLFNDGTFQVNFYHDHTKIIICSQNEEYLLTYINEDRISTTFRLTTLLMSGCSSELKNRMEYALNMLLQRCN

Biological target: Serine/threonine-protein kinase PLK2 (Homo sapiens, UniProt Q9NYY3)
Assay: Inhibition of 5CF-GPMQTSpTPKNG-NH2 binding to Plk2 C-terminal polo-box domain (unknown origin) preincubated for 30 mins followed by probe addition measured after 30 mins by fluorescence polarization assay

## CC(=O)N1CCC[C@H]1C(=O)N[C@@H](CC(C)C)C(=O)N[C@@H](Cc1cncn1CCCCCCCCc1ccccc1)C(=O)N[C@@H](CO)C(=O)N[C@H](C(N)=O)[C@@H](C)OP(=O)(O)O
  IC50: 570 nM
